The values below come from patent US6953793B2 (priority 2000, dated 2005).

Amino acid sequences for entries named in this document (tags omitted). Residues count along the entry.
UniProt P25774, 115-331: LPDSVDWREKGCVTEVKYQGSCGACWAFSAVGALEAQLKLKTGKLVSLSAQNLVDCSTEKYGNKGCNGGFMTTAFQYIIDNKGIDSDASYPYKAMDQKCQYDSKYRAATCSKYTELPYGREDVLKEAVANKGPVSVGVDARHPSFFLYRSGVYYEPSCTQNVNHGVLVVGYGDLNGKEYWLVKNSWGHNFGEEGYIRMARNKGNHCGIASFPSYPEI

The target of the assay is T1, Recombinant human cathepsin S (CatS) (Homo sapiens, UniProt P25774).
T1 construct: made in house; host or cells: baculovirus system (insect cells)
The experiment in a line: biochemical.
Consider `CN(C)c1ccc2c(n1)n(C1CCN(CC(O)Cn3nc(-c4ccc(C(F)(F)F)cc4)c4c3CCN(S(C)(=O)=O)C4)CC1)c(=O)n2C` (stereo not drawn) [Example 346, 5-Dimethylamino-3-(1-{2-hydroxy-3-[5-methanesulfonyl-3-(4-trifluoromethyl-phenyl)-4,5,6,7-tetrahydro-pyrazolo[4,3-c]pyridin-1-yl]-propyl}-piperidin-4-yl)-1-methyl-1,3-dihydro-imidazo[4,5-b]pyridin-2-one], for which the IC50 (commonly the concentration that inhibits the measured activity by half) came out at 70 nM.
Consider `CC(=O)N1CCc2c(c(-c3ccc([N+](=O)[O-])cc3)nn2CC(O)CN2CCC(n3c(=O)n(C)c4ccccc43)CC2)C1` (stereo not drawn) [Example 342, 1-(1-{3-[5-Acetyl-3-(4-nitro-phenyl)-4,5,6,7-tetrahydro-pyrazolo[4,3-c]pyridin-1-yl]-2-hydroxy-propyl}-piperidin-4-yl)-3-methyl-1,3-dihydro-benzoimidazol-2-one], for which the IC50 came to 380 nM.
Consider `CS(=O)(=O)N1CCc2c(c(-c3ccc(C(F)(F)F)cc3)nn2CC(O)CN2CCC(n3c(=O)n(CC#N)c4cccnc43)CC2)C1` (stereo not drawn) [Example 375, [3-(1-{2-Hydroxy-3-[5-methanesulfonyl-3-(4-trifluoromethyl-phenyl)-4,5,6,7-tetrahydro-pyrazolo[4,3-c]pyridin-1-yl]-propyl}-piperidin-4-yl)-2-oxo-2,3-dihydro-imidazo[4,5-b]pyridin-1-yl]-acetonitrile], for which the IC50 came to 50 nM.
With `Cn1c(=O)n(C2CCN(C[C@@H](O)Cn3nc(-c4ccc(C(F)(F)F)cc4)c4c3CCN(S(C)(=O)=O)C4)CC2)c2cc(Cl)ccc21` [Example 367, (R)-5-Chloro-3-(1-{2-hydroxy-3-[5-methanesulfonyl-3-(4-trifluoromethyl-phenyl)-4,5,6,7-tetrahydro-pyrazolo[4,3-c]pyridin-1-yl]-propyl}-piperidin-4-yl)-1-methyl-1,3-dihydro-benzoimidazol-2-one], the IC50 was determined as 30 nM.
In the case of `CC(=O)N1CCc2c(c(-c3ccc(Cl)cc3)nn2CC(O)CN2CCC(Nc3ccccc3F)CC2)C1` (stereo not drawn) [Example 217, 1-(3-(4-Chloro-phenyl)-1-{3-[4-(2-fluoro-phenylamino)-piperidin-1-yl]-2-hydroxy-propyl}-1,4,6,7-tetrahydro-pyrazolo[4,3-c]pyridin-5-yl)-ethanone], the IC50 was 830 nM.
As to `CC(=O)N1CCc2c(c(-c3ccc(Cl)c(C(F)(F)F)c3)nn2CC(O)CN2CCC(n3c(=O)[nH]c4ccccc43)CC2)C1` (stereo not drawn) [Example 280, 1-(1-{3-[5-Acetyl-3-(4-chloro-3-trifluoromethyl-phenyl)-4,5,6,7-tetrahydro-pyrazolo[4,3-c]pyridin-1-yl]-2-hydroxy-propyl}-piperidin-4-yl)-1,3-dihydro-benzoimidazol-2-one], the IC50 amounted to 230 nM.
Turning to `CC(=O)N1CCc2c(c(-c3ccc(Cl)c(C)c3)nn2CC(O)CN2CCC(n3c(=O)n(C)c4ccccc43)CC2)C1` (stereo not drawn) [Example 260, 1-(1-{3-[5-Acetyl-3-(4-chloro-3-methyl-phenyl)-4,5,6,7-tetrahydro-pyrazolo[4,3-c]pyridin-1-yl]-2-hydroxy-propyl}-piperidin-4-yl)-3-methyl-1,3-dihydro-benzoimidazol-2-one], the IC50 came to 480 nM.
In the case of `CCNC(=O)N1CCc2c(c(-c3ccc(C(F)(F)F)cc3)nn2CCCN2CCC(n3c(=O)n(C)c4ccccc43)CC2)C1` [Example 333, 1-{3-[4-(3-Methyl-2-oxo-2,3-dihydro-benzoimidazol-1-yl)-piperidin-1-yl]-propyl}-3-(4-trifluoromethyl-phenyl)-1,4,6,7-tetrahydro-pyrazolo[4,3-c]pyridine-5-carboxylic acid ethylamide], the IC50 came to 240 nM.
As for `Cn1c(=O)n(C2CCN(CCCn3nc(-c4ccc(C(F)(F)F)cc4)c4c3CCN(S(C)(=O)=O)C4)CC2)c2ncccc21` [Example 329, 3-(1-{3-[5-Methanesulfonyl-3-(4-trifluoromethyl-phenyl)-4,5,6,7-tetrahydro-pyrazolo[4,3-c]pyridin-1-yl]-propyl}-piperidin-4-yl)-1-methyl-1,3-dihydro-imidazo[4,5-b]pyridin-2-one], the figure is 80 nM.
